From patent US20220016052A1, “METHODS FOR TREATING CANCER IN MODELS HARBORING ESR1 MUTATIONS” (Radius Pharmaceuticals, Inc., priority 2018, published 2022) come the findings set out here.

Experiment [1] concerns Y537S clone 1, Y537S clone 2, D538G clone 1, D538G clone 2, and S463P clone 1 cancer cell lines. Description: proliferation in in vitro models harboring ESR1 mutations (FIG. 1). The note with it: elacestrant at 100 nM, in vitro ESR1 mutant clones. In kind it is cell-based.
Experiment [2] concerns ER signaling (PgR, GREB1, TFF1) in tumor cell models having wild type, S463P, D538G, and Y537S mutations. Briefly: ER signaling in in vitro models harboring ESR1 mutations, RT-qPCR (FIGS. 3A-3C). In kind it is cell-based. The note with it: 10, 100, and 1000 nM. Here is the method: (§1) At the end of treatment, cells were lysed with the lysis buffer from the 1-step Cells-to-Ct kit and the lysates were processed according to the manufacturer's instructions. qPCR was performed using the 1-step master mix and TaqMan™ probes (Applied Biosystems). The Ct values were analyzed to assess relative changes in expression of PgR (progesterone receptor) mRNA, with GAPDH as an internal control, using the 2-ΔΔCT method.
In general terms: Real-time PCR tracks product formation cycle by cycle.

For experiment [3], the system named is ST941-HI PDX model harboring an ESR1:Y537S mutation. Description: tumor growth in ST941-HI PDX model (FIGS. 6A-6B, 9A). Also on record: species or system mice. Conditions: ST941-HI PDX in vivo, elacestrant 10, 30, 60 mg/kg, fulvestrant 3 mg/dose.
In another experiment the test system is ST941-HI PDX cell line. Description: in vitro activity in ST941-HI cell line derived from PDX (FIGS. 8A-8B). The class given is cell-based. Conditions: Y537S. Here is the method:
as §1
Referring to FIGS. 8A-8B, the evaluation of elacestrant and fulvestrant and their in vitro respective activities are provided. In FIG. 8A, in vitro cell viability (% of control) is provided with respect to Log[Concentration (μm)] for a ST941-HI PDX cell line. In FIG. 8B, fold change over vehicle control of progesterone receptor (PgR) mRNA levels is plotted with respect to the concentration of elacestrant (0, 10, 100, and 1000 nM) and fulvestrant (0, 10, 100, and 1000 nM) used in treating in vitro ST941-HI cell line derived from PDX.

For experiment [4], the system named is ER / PgR, TFF1, GREB1 in WHIM20 PDX xenograft with an ESR1:Y537S^hom mutation. Description: ER degradation and ER signaling in WHIM20 PDX model (FIGS. 10B-10E). The class given is in vivo, mice. On the procedure:
End of study tumors were pulverized with the cryoPREP™ Impactor (Covaris) and total RNA was extracted with the RNeasy mini kit (Qiagen). qPCR was performed using the Taqman Fast Virus 1-Step Master Mix and TaqMan™ probes (Applied Biosystems) The Ct values were analyzed to assess relative changes in expression of PgR (progesterone receptor) mRNA, with GAPDH as an internal control, using the 2-ΔΔCT method.
Cells or tumors were harvested post-dosing and protein expression analyzed using standard practice and antibodies as follows: ERa, PR, (Cell Signaling Technologies, Cat#13258; #3153) and Vinculin: Sigma-Aldrich, #v9131). Protein expression was quantified using the AzureSpot software and normalized to vinculin expression.

Experiment [5] deals with tumors expressing a mutant form of ERα, namely Y537S ERα. Description: tumor growth in tumors expressing Y537S ERα. The class given is in vivo.
For experiment [6], the system named is WHIM20 PDX xenograft with an ESR1:Y537S^hom mutation. Description: tumor growth in WHIM20 PDX xenograft (FIG. 10A). The note with it: additional oncogenic mutations, elacestrant 30, 60 mg/kg, fulvestrant 3 mg/dose.

Counter-ions that a name gives are not always drawn.

As to `CCNCCc1ccc(CN(CC)c2cc(OC)ccc2[C@@H]2CCc3cc(O)ccc3C2)cc1` [elacestrant, (6R)-6-(2-(N-(4-(2-(ethylamino)ethyl)benzyl)-N-ethylamino)-4-methoxyphenyl)-5,6,7,8-tetrahydronaphthalen-2-ol dihydrochloride], the proliferation entry in experiment [1] is “inhibit proliferation”. In addition, the “proliferation markers (PgR, GREB1, TFF1 fold change relative to control)” value in experiment [2] is recorded as “decrease of proliferation markers”. In addition, the tumor growth inhibition result in experiment [3] (dihydrochloride) is on record as “greater tumor growth inhibition than comparator SERDs”. Further, the tumor growth inhibition entry in experiment [3] (listed as Elacestrant, dihydrochloride) is given as “efficacious”. For the same compound, the “in vitro efficacy (cell viability, PgR mRNA)” value with ST941-HI PDX cell line was “efficacious”. In experiment [4], the ER degradation result is reported as “degrading ER” and the ER signaling entry is “inhibiting ER signaling”. The tumor growth entry in experiment [5] is reported as “inhibit the growth of tumors”. Moreover, the “efficacy (tumor volumes over time)” value in experiment [6] is “partial efficacy”.
With `C[C@]12CC[C@@H]3c4ccc(O)cc4C[C@@H](CCCCCCCCC[S+]([O-])CCCC(F)(F)C(F)(F)F)[C@H]3[C@@H]1CC[C@@H]2O` (stereo partly shown) [fulvestrant, reference compound], in experiment [3], the tumor growth inhibition entry is recorded as “lack of activity in vivo”. The “in vitro efficacy (cell viability, PgR mRNA)” value in the experiment with ST941-HI PDX cell line is recorded as “efficacious in vitro”. Also, in experiment [4], the ER degradation entry is “degrading ER” and the ER signaling result was “inhibiting ER signaling”.
